This series has as its system ROUNDUP READY FLEX cotton. As to the kind of experiment: Greenhouse test of PMIDA-induced necrosis in ROUNDUP READY FLEX cotton. The following applies: Example H2; composition D + additive 10:1 w/w; 2520 g/ha.

Structures are written as SMILES. This is a selection: effects in other tests are not listed, and their absence says nothing.

On to `OCCN(CCO)CCO`, for which the “decrease of necrosis (in words)” value is recorded as “significantly decreased necrosis”.

(Values after patent US12089591B2 (priority 2005, dated 2024).)
